Results reported in publication PMC5518866 (British Journal of Cancer, 2017).
Like-named read-outs stand apart in the source and are kept apart here.

How the values were obtained:
[1] = test system: patients with advanced malignancies; test: Phase I, 3 days on/4 days off schedule: safety; assay type: in vivo, human
[2] = ref Siemeister et al, 2012; cited from earlier work
[3] = Plasma pharmacokinetics, 3 days on/4 days off schedule; assay type: in vivo, human
[4] = test system: patients with advanced malignancies; test: Phase I, 4 weeks on/2 weeks off schedule: safety; parameters: species or system human; details: in vivo
[5] = Formulation bridging and food-effect pharmacokinetics; assay type: in vivo, human; details: for AUC(0–24), geometric mean: seven patients
[6] = Plasma pharmacokinetics, 4 weeks on/2 weeks off schedule; parameters: species or system human; details: in vivo
[7] = ref Siemeister et al, 2012, cited from earlier work
[8] = Cohort 6 9.6 mg BID bridging (n=6)
[9] = SCLC food-effect cohort 5 mg BID (n=8)
[10] = Tumour mutation cohort 5 mg BID (n=6)
[11] = RP2D 5 mg BID, cycle 1, day 10, expansion cohorts

roniciclib
Dose-limiting toxicities (DLTs) ([1]; 5 mg BID, tablet formulation): no DLTs were reported | Maximum tolerated dose (MTD), initial determination ([1]; BID (5 mg in the morning, 10 mg in the evening), solid tumours): 5/10 | MTD, reassessed after thromboembolic events in 5/10 mg expansion phase ([1]; BID, solid tumours): 5 mg | Anorexia, treatment-related AE grade 3 ([1]; Cohort 4 2.4 mg BID (n=3)): 1 (33.3) n (%) | Fatigue, treatment-related AE grade 3 [1, 8]: 1 (16.7) n (%) | Hyponatraemia, treatment-related AE grade 3 [1, 8]: 1 (16.7) n (%) | Nausea, treatment-related AE grade 3 [1, 8]: 1 (16.7) n (%) | Fatigue, treatment-related AE grade 3 ([1]; Cohort 7 5 mg BID (n=4)): 1 (25.0) n (%) | Peripheral ischaemia, treatment-related AE grade 4 ([1]; Cohort 8 5/10 mg BID (n=7)): 1 (14.3) n (%) | Anorexia, treatment-related AE grade 3 ([1]; Cohort 9 10 mg BID (n=7)): 1 (14.3) n (%) | Hypotension, treatment-related AE grade 3 ([1]; Cohort 9 10 mg BID (n=7)): 1 (14.3) n (%) | Hypophosphatemia, treatment-related AE grade 3 ([1]; Cohort L2 5 mg BID (n=4)): 1 (25.0) n (%) | Fatigue, treatment-related AE grade 3 ([1]; Ovarian cohort 5 mg BID (n=22)): 3 (13.6) n (%) | Hypophosphatemia, treatment-related AE grade 3 ([1]; Ovarian cohort 5 mg BID (n=22)): 1 (4.5) n (%) | Hypotension, treatment-related AE grade 3 ([1]; Ovarian cohort 5 mg BID (n=22)): 1 (4.5) n (%) | Nausea, treatment-related AE grade 3 ([1]; Ovarian cohort 5 mg BID (n=22)): 1 (4.5) n (%) | Vomiting, treatment-related AE grade 3 ([1]; Ovarian cohort 5 mg BID (n=22)): 2 (9.1) n (%) | Thromboembolic event, treatment-related AE grade 3 ([1]; Ovarian cohort 5/10 mg BID (n=3)): 2 (66.7) n (%) | Fatigue, treatment-related AE grade 3 ([1]; SCLC cohort 5 mg BID (n=23)): 1 (4.3) n (%) | Hyponatraemia, treatment-related AE grade 3 ([1]; SCLC cohort 5 mg BID (n=23)): 1 (4.3) n (%) | Hypophosphatemia, treatment-related AE grade 3 ([1]; SCLC cohort 5 mg BID (n=23)): 1 (4.3) n (%) | Hypotension, treatment-related AE grade 3 ([1]; SCLC cohort 5 mg BID (n=23)): 2 (8.7) n (%) | Nausea, treatment-related AE grade 3 ([1]; SCLC cohort 5 mg BID (n=23)): 2 (8.7) n (%) | Thromboembolic event, treatment-related AE grade 3 ([1]; SCLC cohort 5 mg BID (n=23)): 1 (4.3) n (%) | Thromboembolic event, treatment-related AE grade 4 ([1]; SCLC cohort 5/10 mg BID (n=2)): 1 (50.0) n (%) | Anorexia, treatment-related AE grade 3 [1, 9]: 1 (12.5) n (%) | Hyponatraemia, treatment-related AE grade 3 [1, 9]: 1 (12.5) n (%) | Nausea, treatment-related AE grade 3 [1, 9]: 1 (12.5) n (%) | Vomiting, treatment-related AE grade 3 [1, 9]: 1 (12.5) n (%) | Anorexia, treatment-related AE grade 3 ([1]; Total (N=111)): 4 (3.6) n (%) | Fatigue, treatment-related AE grade 3 ([1]; Total (N=111)): 8 (7.2) n (%) | Hyponatraemia, treatment-related AE grade 3 ([1]; Total (N=111)): 3 (2.7) n (%) | Hypophosphatemia, treatment-related AE grade 3 ([1]; Total (N=111)): 3 (2.7) n (%) | Hypotension, treatment-related AE grade 3 ([1]; Total (N=111)): 4 (3.6) n (%) | Nausea, treatment-related AE grade 3 ([1]; Total (N=111)): 6 (5.4) n (%) | Peripheral ischaemia, treatment-related AE grade 4 ([1]; Total (N=111)): 1 (0.9) n (%) | Thromboembolic event, treatment-related AE grade 3 ([1]; Total (N=111)): 3 (2.7) n (%) | Thromboembolic event, treatment-related AE grade 4 ([1]; Total (N=111)): 1 (0.9) n (%) | Vomiting, treatment-related AE grade 3 ([1]; Total (N=111)): 3 (2.7) n (%) | Anorexia, treatment-related AE grade 3 [1, 10]: 1 (16.7) n (%) | Fatigue, treatment-related AE grade 3 [1, 10]: 2 (33.3) n (%) | Nausea, treatment-related AE grade 3 [1, 10]: 1 (16.7) n (%) | Abnormal electrocardiogram patterns ([1]; across both studies): uncommon | Anorexia, roniciclib-related TEAE grade 3 ([1]; all cohorts): 3.6% | Diarrhoea, roniciclib-related TEAE any grade ([1]; all cohorts): 63.1% | Fatigue, roniciclib-related TEAE any grade ([1]; all cohorts): 65.8% | Fatigue, roniciclib-related TEAE grade 3 ([1]; all cohorts): 7.2% | Hypotension, roniciclib-related TEAE grade 3 ([1]; all cohorts): 3.6% | Nausea, roniciclib-related TEAE any grade ([1]; all cohorts): 76.6% | Nausea, roniciclib-related TEAE grade 3 ([1]; all cohorts): 5.4% | Patients with an AE of grade 3 ([1]; all cohorts): 42.3% | Patients with an AE of grade 3, 4 or 5 ([1]; all cohorts): 59.5% | Patients with an AE of grade 4 ([1]; all cohorts): 5.4% | Patients with an AE of grade 5 ([1]; all cohorts): 11.7% | Patients with at least one dose modification (reduction or interruption) ([1]; all cohorts): 63.1% | Patients with dose interruptions or delays ([1]; all cohorts): 59.5% | Patients with dose reductions ([1]; all cohorts): 20.7% | Roniciclib-related TEAEs of any grade, patients ([1]; all cohorts): 95.5% | Vomiting, roniciclib-related TEAE any grade ([1]; all cohorts): 57.7% | Deaths attributed to the study drug ([1]; in vivo): None of these deaths was attributed to the study drug | Effect on neutrophils ([1]; in vivo): no marked effect on neutrophils was observed | Grade 5 event: death not specified ([1]; in vivo): 2.7% | Patients who died between first day of treatment and 30 days post treatment ([1]; in vivo): Eleven | Patients with roniciclib-related serious AEs ([1]; in vivo): Eleven | Relevant treatment-emergent changes in coagulation parameters (factor VIII, D-dimers, von Willebrand factor antigen) ([1]; in vivo): not observed | Roniciclib-related serious AEs: thromboembolic events and peripheral ischaemia ([1]; in vivo): 4.5% | Serious TEAE: other general disorders ([1]; in vivo): 4.5% | Serious TEAE: venous and arterial thromboembolic events ([1]; including a case of peripheral ischaemia): 7.2% | Dose-limiting toxicities (DLTs) ([1]; lymphoid malignancy dose-escalation cohorts, doses up to 5 mg BID): No DLTs were reported | Dose-limiting toxicities (DLTs), patients ([1]; solid-tumour dose-escalation cohorts): five | Number of roniciclib-related grade 4 TEAEs ([1]; thromboembolic event and peripheral ischaemia): two | Recommended phase II dose (RP2D) ([1]; twice daily (BID), solid tumours): 5 mg | Solubility [2]: high solubility | AUC(0–12), geometric mean, multiple-dose [3, 11]: 662 µg·h/L | Cmax, geometric mean, multiple-dose [3, 11]: 98.6 ng/mL | Dose proportionality of exposure ([3]; dose range 0.3–10 mg, single-dose and multiple-dose): generally dose-proportional increase in exposure | Accumulation after BID dosing ([3]; expansion cohorts): approximately two-fold | Half-life ([3]; expansion cohorts, on average): 8.5 h | Median tmax ([3]; oral, solution and tablet formulations): ~1 h | Exposure with monotherapy in patients below simulated efficacious exposure in mice ([3]; unpublished data): ~50% | Grade 4 or 5 TEAEs [4]: No grade 4 or 5 TEAEs were reported | AUC(0–24), geometric mean ([5]; 5 mg tablets following a high-fat, high-calorie meal): 318 ng·h/mL | AUC(0–24), geometric mean ([5]; 5 mg tablets under fasting conditions): 511 ng·h/mL | Decrease in exposure with food ([5]; 5 mg tablets, AUC(0–24) fed vs fasting): 38% | Cmax, geometric mean ([5]; 5 mg tablets, fasting): 71.5 ng/mL | Cmax, geometric mean ([5]; 5 mg tablets, fed): 29.7 ng/mL | AUC (from time 0 to the last data point), geometric mean ([5]; 9.6 mg as solution formulation): 575 ng·h/mL | AUC (from time 0 to the last data point), geometric mean ([5]; 10 mg as tablets): 815 ng·h/mL | PK parameters in 4 weeks on/2 weeks off vs 3 days on/4 days off schedule [6]: generally comparable | Bioavailability ([7]; mice): good bioavailability | Bioavailability ([7]; preclinical, after oral application): ~50% | Volume of distribution ([7]; preclinical): high volume of distribution
